We go through one molecule from patent US6130053A, “Method for selecting compounds for inhibition of neoplastic lesions” (priority 1999, dated 2000).

The experiment concerns SW-480 colon adenocarcinoma cells. Briefly: Apoptosis inducing activity, fold induction (fold stimulation, DNA fragmentation ELISA). The following applies: neoplastic cells. (In general: In an ELISA, binding on a coated surface is turned into a signal by an enzyme label.)

Regarding `CCCOc1ccccc1-c1nc2nn[nH]c2c(=O)[nH]1` [Zaprinast], the “apoptosis-inducing or growth-inhibiting properties” value is recorded as “does not have significant apoptosis-inducing or growth-inhibiting properties”.
